# Measured values taken from ChEMBL document CHEMBL5576053, “Nonclassical Zwitterions as a Design Principle to Reduce Lipophilicity without Impacting Permeability” (J Med Chem, 2024).
# Legend:
# [1] = Ionization constant, pKa of compound at pH 1 to 5; type: physicochemical
# [2] = Ionization constant, pKa of compound at pH 5 to 10; type: physicochemical
smiles,measurement,setting,value
CC[C@H]1NC(=O)[C@@H](NC(=O)c2ncccc2O)[C@@H](C)OC(=O)[C@H](c2ccccc2)NC(=O)[C@@H]2CC(=O)CCN2C(=O)[C@H](Cc2ccc(N(C)C)cc2)N(C)C(=O)[C@@H]2CCCN2C1=O [PRISTINAMYCIN 1A],pKa,[1],1
same,pKa,[2],7.2
